Measured values reported in US9777034B2, “Modular synthesis of amphiphilic Janus glycodendrimers and their self-assembly into glycodendrimersomes” (The Trustees of The University of Pennsylvania, priority 2013, dated 2017).

Assay type: physicochemical
Method: Three twin-hydrophobic dendrons containing branched alkyl groups in their hydrophobic part and alkyne (11d) or azide (14d,e,f) groups were combined with the carbohydrates 23 and 27 containing azide groups, with the carbohydrates 41a and 43a containing the alkyne directly attached, and with 41d that has the alkyne attached to the carbohydrate via a tri(ethylene)glycol spacer. This provided eleven Janus glycodendrimers (Scheme 6). All these Janus glycodendrimers are soluble in THF (10 mg/mL to 40 mg/mL) and after injection produced concentrations in water from 0.5 mg/mL up to 2 mg/mL. The injection in water of their THF solutions generated assemblies with polydispersity ranging from 0.03 to 0.20. […] The analysis of the structure of cubosomes will be presented in a later section. […] Compounds with branched alkyl chains in the hydrophobic side and a long tri(ethylene)glycol spacer in the hydrophilic side (FIG. 3b, c, d) induce the formation of high-quality glycodendrimersomes. […] The extension of the thick wall is about three times larger than that of the regular thin wall which is about the thickness of two Janus dendrimer length (˜7 nm). […]

| solubility in THF | Substance |
| --- | --- |
| limited solubility in THF | (3,4)12G1-PE-TRZ-(mannose)2 [Compound 46ab] |
| limited solubility in THF | ((3,4)12G-PE-TRZ-(galactose)2 [Compound 46aa] |
